Reference: PubChem BioAssay (NCI)
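Growth conditions: 96-well plates. Treatment: test compound, 48 hours, 5 concentrations. Analysis: linear interpolation between bracketing concentrations; unreached endpoints set to highest concentration. GI50: concentration for 50% inhibition of growth. TGI: concentration producing complete growth inhibition.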

Columns and labels:
Assay in all cases: DTP human tumour cell line panel, 48 h; in the data active means GI50 below about 0.43 µM; inactive means the rest
T-47D breast = test system: T-47D breast
SK-MEL-5 melanoma = test system: SK-MEL-5 melanoma
IGROV1 ovarian = test system: IGROV1 ovarian
SK-MEL-2 melanoma = test system: SK-MEL-2 melanoma
K-562 leukemia = test system: K-562 leukemia
HOP-92 NSCLC = test system: HOP-92 NSCLC
TK-10 renal = test system: TK-10 renal
SK-OV-3 ovarian = test system: SK-OV-3 ovarian
OVCAR-4 ovarian = test system: OVCAR-4 ovarian
MDA-MB-231 breast = test system: MDA-MB-231 breast
HCT-15 colon = test system: HCT-15 colon
KM12 colon = test system: KM12 colon
MALME-3M melanoma = test system: MALME-3M melanoma
SF-539 CNS = test system: SF-539 CNS
ACHN renal = test system: ACHN renal
MDA-MB-435 = test system: MDA-MB-435
A549 NSCLC = test system: A549 NSCLC
OVCAR-8 ovarian = test system: OVCAR-8 ovarian
U251 CNS = test system: U251 CNS
MCF7 breast = test system: MCF7 breast
CAKI-1 renal = test system: CAKI-1 renal
NCI-H23 lung = test system: NCI-H23 lung
MOLT-4 leukemia = test system: MOLT-4 leukemia
OVCAR-3 ovarian = test system: OVCAR-3 ovarian
A498 renal = test system: A498 renal
PC-3 prostate = test system: PC-3 prostate
RXF 393 renal = test system: RXF 393 renal
HOP-62 NSCLC = test system: HOP-62 NSCLC
UACC-62 melanoma = test system: UACC-62 melanoma
HS 578T breast = test system: HS 578T breast
SR leukemia = test system: SR leukemia
LOX IMVI melanoma = test system: LOX IMVI melanoma
EKVX NSCLC = test system: EKVX NSCLC
NCI-H226 lung = test system: NCI-H226 lung
HL-60(TB) leukemia = test system: HL-60(TB) leukemia
RPMI-8226 leukemia = test system: RPMI-8226 leukemia
NCI/ADR-RES ovarian = test system: NCI/ADR-RES ovarian
UO-31 renal = test system: UO-31 renal
CCRF-CEM leukemia = test system: CCRF-CEM leukemia
SN12C renal = test system: SN12C renal
NCI-H460 lung = test system: NCI-H460 lung
M14 melanoma = test system: M14 melanoma
SW-620 colon = test system: SW-620 colon
NCI-H322M lung = test system: NCI-H322M lung
UACC-257 melanoma = test system: UACC-257 melanoma
SNB-19 CNS = test system: SNB-19 CNS
SF-268 CNS = test system: SF-268 CNS
COLO 205 colon = test system: COLO 205 colon
HCC-2998 colon = test system: HCC-2998 colon
MDA-N = test system: MDA-N
DU-145 prostate = test system: DU-145 prostate
SK-MEL-28 melanoma = test system: SK-MEL-28 melanoma
SNB-75 CNS = test system: SNB-75 CNS
786-0 renal = test system: 786-0 renal
HT29 colon = test system: HT29 colon
OVCAR-5 ovarian = test system: OVCAR-5 ovarian
HCT-116 colon = test system: HCT-116 colon
NCI-H522 lung = test system: NCI-H522 lung
SF-295 CNS = test system: SF-295 CNS
BT-549 breast = test system: BT-549 breast

Cc1cccc(C[N+](C)(CCCl)CCCl)c1[N+](=O)[O-]
inactive: GI50 (T-47D breast) 35.3 µM | GI50 (SK-MEL-5 melanoma) > 100 µM | GI50 (IGROV1 ovarian) > 100 µM | GI50 (SK-MEL-2 melanoma) > 100 µM | GI50 (K-562 leukemia) > 100 µM | GI50 (HOP-92 NSCLC) 46 µM | GI50 (TK-10 renal) > 100 µM | GI50 (SK-OV-3 ovarian) > 100 µM | GI50 (OVCAR-4 ovarian) > 100 µM | GI50 (MDA-MB-231 breast) > 100 µM | GI50 (HCT-15 colon) > 100 µM | GI50 (KM12 colon) > 100 µM | GI50 (MALME-3M melanoma) > 100 µM | GI50 (SF-539 CNS) > 100 µM | GI50 (ACHN renal) 24.3 µM | GI50 (MDA-MB-435) > 100 µM | GI50 (A549 NSCLC) 91.2 µM | GI50 (OVCAR-8 ovarian) > 100 µM | GI50 (U251 CNS) > 100 µM | GI50 (MCF7 breast) 85.7 µM | GI50 (CAKI-1 renal) 22.5 µM | GI50 (NCI-H23 lung) 94.2 µM | GI50 (MOLT-4 leukemia) 30.5 µM | GI50 (OVCAR-3 ovarian) > 100 µM | GI50 (A498 renal) > 100 µM | GI50 (PC-3 prostate) > 100 µM | GI50 (RXF 393 renal) 51.5 µM | GI50 (HOP-62 NSCLC) > 100 µM | GI50 (UACC-62 melanoma) > 100 µM | GI50 (HS 578T breast) > 100 µM | GI50 (SR leukemia) 3.33 µM | GI50 (LOX IMVI melanoma) 67.3 µM | GI50 (EKVX NSCLC) > 100 µM | GI50 (NCI-H226 lung) > 100 µM | GI50 (HL-60(TB) leukemia) 31.4 µM | GI50 (RPMI-8226 leukemia) > 100 µM | GI50 (NCI/ADR-RES ovarian) > 100 µM | GI50 (UO-31 renal) > 100 µM | GI50 (CCRF-CEM leukemia) 32.8 µM | GI50 (SN12C renal) 68.9 µM | GI50 (NCI-H460 lung) 6.03 µM | GI50 (M14 melanoma) > 100 µM | GI50 (SW-620 colon) > 100 µM | GI50 (NCI-H322M lung) > 100 µM | GI50 (UACC-257 melanoma) > 100 µM | GI50 (SNB-19 CNS) > 100 µM | GI50 (SF-268 CNS) > 100 µM | GI50 (COLO 205 colon) > 100 µM | GI50 (HCC-2998 colon) > 100 µM | GI50 (MDA-N) > 100 µM | GI50 (DU-145 prostate) 75.5 µM | GI50 (SK-MEL-28 melanoma) > 100 µM | GI50 (SNB-75 CNS) 39.4 µM | GI50 (786-0 renal) 82.2 µM | GI50 (HT29 colon) > 100 µM | GI50 (OVCAR-5 ovarian) > 100 µM | GI50 (HCT-116 colon) > 100 µM | GI50 (NCI-H522 lung) 67.1 µM | GI50 (SF-295 CNS) > 100 µM | GI50 (BT-549 breast) > 100 µM
> 100 µM: TGI (T-47D breast) | TGI (SK-MEL-5 melanoma) | TGI (IGROV1 ovarian) | TGI (SK-MEL-2 melanoma) | TGI (K-562 leukemia) | TGI (HOP-92 NSCLC) | TGI (TK-10 renal) | TGI (SK-OV-3 ovarian) | TGI (OVCAR-4 ovarian) | TGI (MDA-MB-231 breast) | TGI (HCT-15 colon) | TGI (KM12 colon) | TGI (MALME-3M melanoma) | TGI (SF-539 CNS) | TGI (ACHN renal) | TGI (MDA-MB-435) | TGI (A549 NSCLC) | TGI (OVCAR-8 ovarian) | TGI (U251 CNS) | TGI (MCF7 breast) | TGI (CAKI-1 renal) | TGI (NCI-H23 lung) | TGI (MOLT-4 leukemia) | TGI (OVCAR-3 ovarian) | TGI (A498 renal) | TGI (PC-3 prostate) | TGI (RXF 393 renal) | TGI (HOP-62 NSCLC) | TGI (UACC-62 melanoma) | TGI (HS 578T breast) | TGI (SR leukemia) | TGI (LOX IMVI melanoma) | TGI (EKVX NSCLC) | TGI (NCI-H226 lung) | TGI (HL-60(TB) leukemia) | TGI (RPMI-8226 leukemia) | TGI (NCI/ADR-RES ovarian) | TGI (UO-31 renal) | TGI (CCRF-CEM leukemia) | TGI (SN12C renal) | TGI (NCI-H460 lung) | TGI (M14 melanoma) | TGI (SW-620 colon) | TGI (NCI-H322M lung) | TGI (UACC-257 melanoma) | TGI (SNB-19 CNS) | TGI (SF-268 CNS) | TGI (COLO 205 colon) | TGI (HCC-2998 colon) | TGI (MDA-N) | TGI (DU-145 prostate) | TGI (SK-MEL-28 melanoma) | TGI (SNB-75 CNS) | TGI (786-0 renal) | TGI (HT29 colon) | TGI (OVCAR-5 ovarian) | TGI (HCT-116 colon) | TGI (NCI-H522 lung) | TGI (SF-295 CNS) | TGI (BT-549 breast)
